# In ChEMBL document CHEMBL1955852, “Development of live-cell imaging probes for monitoring histone modifications” (Bioorg Med Chem, 2012):
# Chains of the proteins cited; added tags and fusions are not shown.
# UniProt Q15059, whole entry: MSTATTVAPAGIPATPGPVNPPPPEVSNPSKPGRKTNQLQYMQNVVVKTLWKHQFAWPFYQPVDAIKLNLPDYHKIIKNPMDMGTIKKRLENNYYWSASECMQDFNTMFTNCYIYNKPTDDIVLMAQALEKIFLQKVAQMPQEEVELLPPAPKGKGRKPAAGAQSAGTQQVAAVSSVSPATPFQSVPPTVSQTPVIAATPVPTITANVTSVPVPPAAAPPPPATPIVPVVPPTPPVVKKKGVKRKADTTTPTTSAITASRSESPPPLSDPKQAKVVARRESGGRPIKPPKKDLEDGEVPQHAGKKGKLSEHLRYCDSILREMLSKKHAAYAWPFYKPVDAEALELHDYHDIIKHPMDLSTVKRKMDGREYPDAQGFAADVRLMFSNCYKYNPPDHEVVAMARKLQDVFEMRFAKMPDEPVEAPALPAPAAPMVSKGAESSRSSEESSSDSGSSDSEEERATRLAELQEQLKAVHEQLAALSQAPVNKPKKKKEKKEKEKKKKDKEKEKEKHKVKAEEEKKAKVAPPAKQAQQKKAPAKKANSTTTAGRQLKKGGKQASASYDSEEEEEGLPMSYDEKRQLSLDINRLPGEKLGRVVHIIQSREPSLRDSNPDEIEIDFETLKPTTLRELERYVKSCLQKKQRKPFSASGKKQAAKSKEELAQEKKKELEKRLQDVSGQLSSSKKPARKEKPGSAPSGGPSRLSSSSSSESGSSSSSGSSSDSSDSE
# Experiments:
# [1] = molecular target: T1, Bromodomain-containing protein 3 (Homo sapiens, UniProt Q15059); assay: Binding affinity to BRD3-BD1,2 by isothermal titration calorimetry
# [2] = molecular target: T1, Bromodomain-containing protein 3; assay: Displacement of acetylated histone peptide from BRD3-BD1,2 by FRET assay
smiles,measurement,setting,value
Cc1nnc2n1-c1ccccc1C(c1ccccc1)=N[C@H]2NC(=O)OCc1ccccc1,Kd,[1],0.046 µM
same,IC50,[2],0.0284 µM
